This is a sample that favours compounds with a hit; in the whole collection about 3.7% have one here.
A549 tox: counter-screen for Nrf2 inhibitors: cytotoxicity in A549 cells. A549 ARE-Fluc cells, CellTiter-Fluor viability, 18-24 h. Potency, µM (highest dose often 46 µM), for inactives: at the highest dose activity change, negative = cytotoxicity, usual class: inhibitors. actives 0.16% (n = 390,000). AID 504648; also: potency is read from the fitted curve at half-maximal effect; % is scaled to controls: 0 for no effect and ±100 for the full control effect
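Cytotoxicity counterscreen: CellTiter-Fluor fluorescence was measured in A549 ARE_Fluc cells after 18-24 h of compound exposure in a concentration series. The subsequent BugLite luminescent read reports ARE-luciferase activity.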
p53 reactivation: mutant p53 re-activation in reporter cells | H1299 p53-A138V BP100-luciferase reporter, luminescence, 24 h | Potency, µM (doses to about 92.2 µM), for inactives: top-dose activity change, positive = activation, most hits filed as activators | actives 0.063% (n = 320,000) | AID 504706; also: potency is read from the fitted curve at half-maximal effect; % of control where 0% means no effect; nearly all actives have a fitted effect of over 45% in size
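H1299 (p53-null), stable ts p53-A138V + BP100-Luc; 1000 cells/well, Opti-MEM/10% FBS; cpd 4 pt, 1:5; 24 h, 37 deg C, 5% CO2; detection reagent 10 min RT; luminescence.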
Nrf2 block: blocks Nrf2 signaling; A549 ARE-Fluc reporter, luciferase luminescence, 18-24 h; Potency, µM (highest dose often 46 µM), inactives show at the highest dose activity change, negative = inhibition, hits mostly inhibitors; actives 2.1% (n = 360,000); AID 504444; also: potency is read from the fitted curve at half-maximal effect; % is scaled to controls: 0 for no effect and ±100 for the full control effect; nearly all actives have a fitted effect of over 60% in size
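A549 ARE_Fluc cells, 5000/well, 5% FBS OPTI-MEM; compounds in dose-response, 18-24 h at 37 °C/5% CO2; CellTiter-Fluor viability read (Ex 405/Em 525), then BugLite luciferase luminescence = Nrf2 activity.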
ClpP mod: qHTS Assay for Activators of ClpP; actives 1.9% (n = 340,000); ATP-dependent Clp protease proteolytic subunit (Bacillus subtilis (strain 168)), P80244; purified B. subtilis ClpP, FRET peptide cleavage, 20 min; Potency, µM (highest dose often 57.5 µM), for the others: top-dose activity change, negative = active; active = well fitted falling curve with a large enough effect; inconclusive = small, poorly fitted or top-dose-only effect; inactive = no such curve, though single readings can be large or run the other way; also: potency is read from the fitted curve at half-maximal effect; the source files actives as falling curves though it sought activators and does not explain the sign; nearly all actives have a fitted effect of over 65% in size
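Purified B. subtilis ClpP, 10 microg/mL final in Tris/HCl pH8 with KCl, BSA, glycerol and Tween-20, cleaved an Abz/nitrotyrosine-quenched decapeptide. Fluorescence (ex 320, em 430) was read at 0 and 20 min at room temperature. Delta was normalized to 5.8 microM ADEP and DMSO/no-enzyme controls.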
Nrf2 ARE act: Nrf2 pathway activation; AREc32 ARE-luciferase reporter (MCF7-derived line), luminescence, 24 h; actives 0.31% (n = 410,000); Potency, µM (highest dose often 46.1 µM), for the others: top-dose activation, most hits filed as activators; AID 624171; also: potency is read from the fitted curve at half-maximal effect; % of control where 0% means no effect; nearly all actives have a fitted effect of over 65% in size
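Cells of the AREc32 ARE-luciferase line are plated in OPTI-MEM containing 5% FBS and left overnight at 37 deg C. Compounds are pinned in, incubation continues 24 hr, and firefly luciferase signal is then measured.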
miR-21 reporter: miR-21 reporter, rising signal | HeLa miR-21 FLuc reporter, luciferase, 48 h | Potency, µM (top dose mostly 38.3 µM), inactives show at the top dose reporter change, positive = more light | 340,000 tested, under 10 active | AID 2288; active = well fitted rising curve with a large enough effect; inconclusive = small, poorly fitted or top-dose-only effect; inactive = no such curve, though single readings can be large or run the other way;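 further: % of control where 0% means no effect; miR-21 action dims this reporter so a rising signal means less miR-21 action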
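HeLa cells stably expressing CMV-driven firefly luciferase with a downstream miR-21 binding sequence, endogenously expressing miR-21, were treated with titrations (up to about 40uM final) for 48 hours at 37 degree Celsius. Luciferase luminescence was read after lysis.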
* = called active by the depositor; ? = inconclusive; / = not tested or not shown; [ ] = dose if it differs, or a comment. Unless noted, calls follow the shape of the dose curve; as a rule, active = well fitted curve in the direction sought with a large enough effect; inconclusive = small, poorly fitted or top-dose-only effect, or another doubt; inactive = no such curve, though single readings can be large; an effect the other way counts as inactive or inconclusive.

1) Cc1cc(Nc2ccccc2)nc(NCc2ccccc2)n1
2) Cc1cc(C)nc(NCCCc2ccccc2)n1
3) Cc1cc(Nc2ccc(Cl)cc2)nc(NCc2ccccc2)n1
4) O=S(=O)(NCC(c1cccs1)S(=O)(=O)c1ccccc1)c1ccc(F)cc1 (stereo not given)
5) Cn1nc([N+](=O)[O-])nc1S(C)(=O)=O
Assay by compound	1	2	3	4	5
ClpP mod	-13%	-22%	-8%	2%	/
Nrf2 block	-18%	-6%	16µM*	/	23µM*
A549 tox	19%	11%	?	4%	-8%
p53 reactivation	10%	6%	-25%	/	-11%
Nrf2 ARE act	2%	0%	2%[9.22 µM]	?	-2%
miR-21 reporter	?	-13%	?	7%	?

6) COc1ccccc1NC(=O)C1=C(C)Nc2nc(SC)nn2C1c1ccccc1Cl (stereo not given)
7) O=C(O)c1ccc(/C=N/Nc2ccc(F)cc2F)cc1
8) Fc1ccc(N/N=C/c2ccncc2)c(F)c1
9) CCOC(=O)c1cc2c(ccn2-c2ccc(F)cc2)n1CC(=O)N1CCN(C(=O)c2ccco2)CC1
10) CCCn1c(C(=O)OC)cc2c1ccn2-c1ccc(F)cc1
Assay by compound	6	7	8	9	10
ClpP mod	-2%	0%	22µM*	32µM*	28µM*
Nrf2 block	0%	?	18%	2%	5%
A549 tox	2%	-8%	-3%	-22%	-6%
p53 reactivation	/	-13%	?	-2%	9%
Nrf2 ARE act	0%	0%	10%	-1%	0%
miR-21 reporter	-2%	-26%	-47%	-5%	-16%

Whole records, looked up by structure:
CCCn1c(C(=O)OC)cc2c1ccn2-c1ccc(F)cc1 is entered as ClpP mod = 28µM*; Nrf2 block = 5%; A549 tox = -6%; p53 reactivation = 9%; Nrf2 ARE act = 0%; miR-21 reporter = -16%
Cn1nc([N+](=O)[O-])nc1S(C)(=O)=O is entered as ClpP mod = /; Nrf2 block = 23µM*; A549 tox = -8%; p53 reactivation = -11%; Nrf2 ARE act = -2%; miR-21 reporter = ?

Other entries follow.
11) COC(=O)c1cc2c(ccn2-c2ccc(F)cc2)n1CC(C)C
12) COc1cc(C)cc2oc(=O)c(CC(=O)NCc3cccc(Cl)c3)c(C)c12
13) Cc1ccc(-c2cc(-c3ccc(C)o3)nc(N)c2C#N)cc1
14) CCOc1cc(-c2cc(-c3ccc(C)o3)nc(N)c2C#N)ccc1O
15) Cc1ccc(-c2cc(-c3ccc(Cl)cc3)c(C#N)c(N)n2)o1
Assay by compound	11	12	13	14	15
ClpP mod	28µM*	5%	22µM*	?	?
Nrf2 block	-6%	?	27%	15µM*	6%
A549 tox	-1%	-7%	2%	?	11%
p53 reactivation	6%	/	-2%	-9%	8%
Nrf2 ARE act	0%	0%	?	5%	28%
miR-21 reporter	-6%	10%	2%	16%	-1%

16) Cc1ccc(-c2cc(-c3ccc4c(c3)OCO4)c(C#N)c(N)n2)o1
17) Cc1ccc(-c2cc(-c3ccc(F)cc3)c(C#N)c(N)n2)o1
18) N#Cc1c(N)oc(-c2ccc3c(c2)OCO3)c1-c1ccc2c(c1)OCO2
19) COC(=O)c1cc2occc2n1Cc1nc(-c2cccc(Br)c2)oc1C
20) CCOc1ccc(NC(=O)C2CCN(S(=O)(=O)c3ccc4c(c3)NC(=O)C(C)S4)CC2)cc1 (stereo not given)
Assay by compound	16	17	18	19	20
ClpP mod	35µM*	/	14µM*	-1%	3%
Nrf2 block	-11%	5%	2%	5%	15µM*
A549 tox	?	-1%	-1%	4%	-14%
p53 reactivation	3%	20%	9%	/	-7%
Nrf2 ARE act	5%	?	16%	-1%	2%
miR-21 reporter	-1%	4%	-38%	1%	25%

21) COc1ccc(NC(=O)C2CCN(S(=O)(=O)c3ccc4c(c3)NC(=O)C(C)S4)CC2)cc1 (stereo not given)
22) CC1Sc2ccc(S(=O)(=O)N3CCC(C(=O)Nc4ccc(Cl)cc4)CC3)cc2NC1=O (stereo not given)
23) CCOC(=O)C(C(=O)OCC)C(Nc1cccc(Br)c1)c1ccccc1 (stereo not given)
24) O=C(Nc1ccc(F)cc1F)C1CCN(c2ncccn2)CC1
25) CCc1ccccc1N(CC)C(=O)Cn1nc(Cc2ccncc2)c2ccccc2c1=O
26) Cc1nc2c([nH]1)C1(CCN(Cc3ccccc3)CC1)C(C#N)=C(N)O2
Assay by compound	21	22	23	24	25	26
ClpP mod	2%	2%	1%	-26%	-5%	16µM*
Nrf2 block	23µM*	-3%	18µM*	-11%	?	/
A549 tox	-3%	1%	?	2%	4%	-1%
p53 reactivation	-8%	-6%	-13%	/	/	8%
Nrf2 ARE act	1%	7%	?	1%	5%	7%
miR-21 reporter	27%	?	?	7%	8%	-7%

Source: PubChem
